{"sequences": {"note": "Amino acid sequences for entries named in this document (tags omitted).", "UniProt P14061, whole entry": "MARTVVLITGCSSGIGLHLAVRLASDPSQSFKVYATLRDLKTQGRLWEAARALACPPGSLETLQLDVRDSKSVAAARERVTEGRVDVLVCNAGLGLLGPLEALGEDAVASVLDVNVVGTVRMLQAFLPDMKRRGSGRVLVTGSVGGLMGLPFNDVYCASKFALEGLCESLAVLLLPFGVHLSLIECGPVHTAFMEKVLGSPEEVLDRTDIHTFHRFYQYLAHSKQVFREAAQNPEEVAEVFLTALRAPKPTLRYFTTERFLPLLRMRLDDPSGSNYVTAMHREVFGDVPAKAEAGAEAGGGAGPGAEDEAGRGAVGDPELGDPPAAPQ", "UniProt P37059, whole entry": "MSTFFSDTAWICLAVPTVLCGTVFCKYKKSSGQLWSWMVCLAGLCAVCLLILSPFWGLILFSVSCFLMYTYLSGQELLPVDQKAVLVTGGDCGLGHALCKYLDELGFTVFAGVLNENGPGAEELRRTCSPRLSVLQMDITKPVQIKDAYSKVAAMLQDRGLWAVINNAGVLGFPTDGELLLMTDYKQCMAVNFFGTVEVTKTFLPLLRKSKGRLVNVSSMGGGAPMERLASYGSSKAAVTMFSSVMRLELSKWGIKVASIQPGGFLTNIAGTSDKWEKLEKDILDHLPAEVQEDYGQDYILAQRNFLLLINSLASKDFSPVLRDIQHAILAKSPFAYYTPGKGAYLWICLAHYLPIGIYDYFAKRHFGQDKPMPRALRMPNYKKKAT", "UniProt P05177, whole entry": "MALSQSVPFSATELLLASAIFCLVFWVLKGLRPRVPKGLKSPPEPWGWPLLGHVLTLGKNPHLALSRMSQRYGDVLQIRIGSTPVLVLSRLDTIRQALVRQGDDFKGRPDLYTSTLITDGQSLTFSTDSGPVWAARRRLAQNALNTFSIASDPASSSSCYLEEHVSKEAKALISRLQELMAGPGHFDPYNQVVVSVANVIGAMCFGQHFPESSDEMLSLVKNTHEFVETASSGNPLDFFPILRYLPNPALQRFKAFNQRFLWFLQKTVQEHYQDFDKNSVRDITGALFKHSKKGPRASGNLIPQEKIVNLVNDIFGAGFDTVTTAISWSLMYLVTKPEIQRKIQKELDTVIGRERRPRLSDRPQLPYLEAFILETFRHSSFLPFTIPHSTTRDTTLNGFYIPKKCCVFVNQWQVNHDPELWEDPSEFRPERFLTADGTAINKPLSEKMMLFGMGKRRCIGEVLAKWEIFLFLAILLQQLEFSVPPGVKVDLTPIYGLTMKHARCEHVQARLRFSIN", "UniProt P20813, whole entry": "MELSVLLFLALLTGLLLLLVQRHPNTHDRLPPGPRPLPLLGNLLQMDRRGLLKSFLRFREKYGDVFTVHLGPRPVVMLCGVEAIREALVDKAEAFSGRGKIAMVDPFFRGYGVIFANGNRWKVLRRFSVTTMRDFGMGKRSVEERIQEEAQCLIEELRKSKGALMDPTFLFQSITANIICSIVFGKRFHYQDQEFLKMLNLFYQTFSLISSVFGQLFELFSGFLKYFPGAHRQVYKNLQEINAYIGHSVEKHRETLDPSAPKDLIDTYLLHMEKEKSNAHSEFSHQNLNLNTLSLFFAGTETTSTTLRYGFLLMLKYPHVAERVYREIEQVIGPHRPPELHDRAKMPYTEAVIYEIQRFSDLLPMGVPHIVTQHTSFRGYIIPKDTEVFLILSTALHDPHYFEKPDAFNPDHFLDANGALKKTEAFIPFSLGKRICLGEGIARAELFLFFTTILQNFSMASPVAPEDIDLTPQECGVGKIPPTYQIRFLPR", "UniProt P11712, whole entry": "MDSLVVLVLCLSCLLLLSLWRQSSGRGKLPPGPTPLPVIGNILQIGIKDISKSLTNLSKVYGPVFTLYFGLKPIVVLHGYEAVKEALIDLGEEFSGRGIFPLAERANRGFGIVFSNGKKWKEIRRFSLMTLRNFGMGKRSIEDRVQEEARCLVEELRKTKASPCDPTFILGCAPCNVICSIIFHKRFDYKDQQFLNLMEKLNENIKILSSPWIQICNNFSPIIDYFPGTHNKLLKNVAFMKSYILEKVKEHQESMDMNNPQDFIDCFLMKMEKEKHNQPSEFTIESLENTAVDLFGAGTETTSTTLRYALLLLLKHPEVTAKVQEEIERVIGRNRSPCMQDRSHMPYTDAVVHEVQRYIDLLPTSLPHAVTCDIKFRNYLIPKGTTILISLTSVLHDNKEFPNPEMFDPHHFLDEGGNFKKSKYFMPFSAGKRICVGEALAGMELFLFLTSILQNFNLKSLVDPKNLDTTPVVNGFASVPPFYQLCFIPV", "UniProt P33261, whole entry": "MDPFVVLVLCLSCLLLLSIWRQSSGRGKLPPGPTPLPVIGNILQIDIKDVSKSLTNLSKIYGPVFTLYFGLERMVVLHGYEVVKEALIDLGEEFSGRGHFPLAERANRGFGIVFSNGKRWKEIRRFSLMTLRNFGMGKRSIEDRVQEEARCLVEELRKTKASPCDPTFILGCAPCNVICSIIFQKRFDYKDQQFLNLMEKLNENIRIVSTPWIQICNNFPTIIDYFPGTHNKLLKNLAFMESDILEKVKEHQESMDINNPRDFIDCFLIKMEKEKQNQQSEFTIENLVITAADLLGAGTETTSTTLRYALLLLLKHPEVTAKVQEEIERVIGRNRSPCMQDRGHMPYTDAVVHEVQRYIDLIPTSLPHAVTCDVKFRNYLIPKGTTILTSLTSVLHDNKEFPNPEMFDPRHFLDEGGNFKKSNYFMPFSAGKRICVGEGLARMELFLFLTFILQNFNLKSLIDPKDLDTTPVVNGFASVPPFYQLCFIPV", "UniProt P10635, whole entry": "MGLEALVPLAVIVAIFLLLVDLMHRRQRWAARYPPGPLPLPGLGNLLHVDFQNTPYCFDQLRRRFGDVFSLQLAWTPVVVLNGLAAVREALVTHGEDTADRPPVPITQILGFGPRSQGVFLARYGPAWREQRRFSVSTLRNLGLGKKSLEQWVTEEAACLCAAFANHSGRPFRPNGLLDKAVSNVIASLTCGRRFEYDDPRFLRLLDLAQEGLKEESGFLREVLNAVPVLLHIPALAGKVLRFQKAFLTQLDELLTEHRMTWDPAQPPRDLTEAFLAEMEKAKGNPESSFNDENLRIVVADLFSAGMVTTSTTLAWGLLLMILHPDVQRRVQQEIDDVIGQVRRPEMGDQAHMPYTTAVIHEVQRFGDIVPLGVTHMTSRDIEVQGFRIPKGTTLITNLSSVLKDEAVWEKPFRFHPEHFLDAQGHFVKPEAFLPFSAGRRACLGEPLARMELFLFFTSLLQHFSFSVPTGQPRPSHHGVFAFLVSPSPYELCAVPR", "UniProt P08684, whole entry": "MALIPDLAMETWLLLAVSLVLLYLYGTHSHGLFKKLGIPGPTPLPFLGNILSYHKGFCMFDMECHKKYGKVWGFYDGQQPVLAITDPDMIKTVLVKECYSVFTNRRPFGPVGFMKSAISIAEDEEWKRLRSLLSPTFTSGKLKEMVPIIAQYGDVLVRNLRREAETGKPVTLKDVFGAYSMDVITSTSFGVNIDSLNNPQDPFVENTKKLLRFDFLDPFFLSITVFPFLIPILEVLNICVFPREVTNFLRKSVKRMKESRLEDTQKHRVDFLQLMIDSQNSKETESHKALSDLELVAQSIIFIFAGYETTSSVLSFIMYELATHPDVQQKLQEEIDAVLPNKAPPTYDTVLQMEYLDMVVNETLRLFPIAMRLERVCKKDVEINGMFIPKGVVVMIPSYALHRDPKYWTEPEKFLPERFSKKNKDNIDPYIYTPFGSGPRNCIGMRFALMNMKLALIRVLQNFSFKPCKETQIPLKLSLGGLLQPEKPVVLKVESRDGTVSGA"}, "source": "patent US8546392B2", "about": "“17Beta-hydroxysteroid dehydrogenase type 1 inhibitors for the treatment of hormone-related diseases” (Universitaet des Saarlandes, priority 2008, dated 2013)", "key": {"17β-HSD1 [1]": {"biological_target": "T1, 17β-HSD1 (Homo sapiens (Human), UniProt P14061)", "test": "17β-HSD1 test assay (recombinant protein from Sf9 insect cells, 3H-estrone/NADPH)", "conditions": "inhibitor 100 nM"}, "CaCo-2 cells": {"test_system": "CaCo-2 cells", "test": "CaCo-2 assay (transport experiments)"}, "[2]": {"test": "Test for metabolic stability, liver microsomes", "conditions": "rat liver microsomes"}, "17β-HSD1 [3]": {"biological_target": "T1, 17β-HSD1"}, "17β-HSD2": {"biological_target": "17β-HSD2 (Homo sapiens (Human), UniProt P37059)"}, "CYP1A2": {"biological_target": "CYP1A2 (Homo sapiens (Human), UniProt P05177)"}, "CYP2B6": {"biological_target": "CYP2B6 (Homo sapiens (Human), UniProt P20813)"}, "CYP2C9": {"biological_target": "CYP2C9 (Homo sapiens (Human), UniProt P11712)"}, "CYP2C19": {"biological_target": "CYP2C19 (Homo sapiens (Human), UniProt P33261)"}, "CYP2D6": {"biological_target": "CYP2D6 (Homo sapiens (Human), UniProt P10635)"}, "CYP3A4": {"biological_target": "CYP3A4 (Homo sapiens (Human), UniProt P08684)"}}, "note": "pIC50: −log10 of the molar value.", "data": [{"smiles": "Cc1nnc(NS(=O)(=O)c2cccc(-c3c(O)ccc4cc(-c5cccc(O)c5)ccc34)c2)s1", "values": [{"measurement": "HSD1 100 nM (% inhibition)", "setting": "17β-HSD1 [1]", "result": 82.2, "unit": "%"}, {"measurement": "mass balance [% ± SD]", "setting": "CaCo-2 cells", "result": "23.0 ± 2.3", "unit": "%"}, {"measurement": "Permeability", "setting": "CaCo-2 cells; class in words", "result": "moderate"}, {"measurement": "final basolateral concentration [μM ± SD]", "setting": "CaCo-2 cells; initial donor concentration 50 μM", "result": "0.9 ± 0.08", "unit": "µM"}, {"measurement": "Half life", "setting": "[2]", "result": 7.497, "unit": "h"}, {"measurement": "Intrinsic clearance (μl/min/mg protein)", "setting": "[2]", "result": 10.3, "unit": "μl/min/mg protein"}, {"measurement": "Slope (−k)", "setting": "[2]", "result": "−0.002"}, {"measurement": "pIC50", "setting": "17β-HSD1 [3]", "result": 7.52}, {"measurement": "selectivity ratio", "setting": "17β-HSD1 [3]", "result": 6.5}, {"measurement": "pIC50", "setting": "17β-HSD2", "result": 6.71}, {"measurement": "pIC50", "setting": "CYP1A2", "result": 4.43}, {"measurement": "pIC50", "setting": "CYP2B6", "result": 4.87}, {"measurement": "pIC50", "setting": "CYP2C9", "result": 7.52}, {"measurement": "pIC50", "setting": "CYP2C19", "result": 5.05}, {"measurement": "pIC50", "setting": "CYP2D6", "result": 4.41}, {"measurement": "pIC50", "setting": "CYP3A4", "result": 5.65}]}]}
